Results reported in patent US8133912B2 (priority 2006, dated 2012).

Assays:
cell growth = assay: cytotoxicity, 50% inhibition of cell growth concentration (IC50); type: cell-based; settings: cytotoxicity examination, 37° C., 24 hours
mouse = settings: oral toxicity; cited from earlier work

Substance: arsenobetaine (trimethyl arsonium acetic acid)
- IC50 (50% Growth inhibition) (cell growth): >10 mg/mL
- LD50 (50% Lethal dose) (mouse): >10 g/kg

Substance: arsenocholine
- IC50 (50% Growth inhibition) (cell growth): >10 mg/mL
- LD50 (50% Lethal dose) (mouse): 6.5 g/kg

Substance: dimethylated arsinic acid
- IC50 (50% Growth inhibition) (cell growth): 0.32 mg/mL
- LD50 (50% Lethal dose) (mouse): 1.2 g/kg

Substance: monomethylated arsenic acid
- IC50 (50% Growth inhibition) (cell growth): 1.2 mg/mL
- LD50 (50% Lethal dose) (mouse): 1.8 g/kg

Substance: trimethylarsineoxide
- IC50 (50% Growth inhibition) (cell growth): >10 mg/mL
- LD50 (50% Lethal dose) (mouse): 10.6 g/kg
